# Values joined by “and” are separate entries in the source; they are usually repeats but may differ in a detail not shown here. Identical values can stand only once. Like-named read-outs stand apart in the source and are kept apart here.
# B1: ADC-6: hAb015-10-cys-D, with a target DAR value of about 4 (conjugate)
# heavy: EVQLVQSGAEVKKPGSSVKVSCKASGSSFSSYGINWVKQAPGQGLEWIGEIFPRSGNTYYNEKFEGRATLTADKSTSTAYMELRSLRSEDTAVYYCAKGDLGDFDYWGQGTTVTVSSASTKGPSVFPLAPSSKSTSGGTAALGCLVKDYFPEPVTVSWNSGALTSGVHTFPAVLQSSGLYSLSSVVTVPSSSLGTQTYICNVNHKPSNTKVDKKV[letters of human IgG1 Fc not shown]
# light: DFVMTQTPLSLPVTPGEPASISCRSSQSIVHSDGNTYFEWYLQKPGQSPKLLIYKVSNRFSGVPDRFSGSGSGTDFTLKISRVEAEDVGVYYCFQGSHVPWTFGGGTKVEIKRTVAAPSVFIFPPSDEQLKSGTASVVCLLNNFYPREAKVQWKVDNALQSGNSQESVTEQDSKDSTYSLSSTLTLSKADYEKHKVYACEVTHQGLSSPVTKSFNRGEC
# What was measured:
# [1] = tested on: DOHH-2 cells highly expressing human CD79B protein; type: cell-based; conditions: DoHH2 cells, 20 μg/mL ADC, 37° C.
# Experimental: A cell endocytosis experiment was performed with DOHH-2 cells (DSMZ, ACC 47) highly expressing human CD79B protein to assess the endocytosis ability of ADCs.
# The cells were collected by low temperature centrifugation at 4° C. for 5 min at 1000 rpm during the experiment. The cells were resuspended in 10-15 mL of FACS buffer pre-cooled on ice. The FACS buffer was composed of phosphate buffered saline (PBS), pH 7.4, with 2% fetal bovine serum (FBS). Throughout the experiment, FACS buffer was pre-cooled on ice. The cells were counted and centrifuged, and added to a 96-well plate at 300,000 cells/well. After centrifugation, the supernatant was discarded, and 12.5 μg/mL Fc blocking solution (BD, Cat No.: 564220) was added at 100 μL/well. Blocking was performed at room temperature for 10 min. Then, 20 μg/mL test ADC was added to the corresponding wells, and the plate was incubated at 4° C. for 1 h away from the light. The plate was washed twice with a pre-cooled PBS buffer to remove unbound ADCs. A complete cell culture medium (RPMI 1640 medium with 10% fetal bovine serum) was added, and the plate was incubated at 37° C. with 5% CO2 for 0 h and 4 h. After centrifugation, the supernatant was discarded, 2% PFA buffer solution was added at 100 μL/well to resuspend the cells, and the plate was left to stand for 10 min. Then, the plate was washed 3 times with an FACS buffer, and 100 μL of secondary antibody solution (fluorescent labeled goat anti-human secondary antibody: diluted in a 1:250 ratio, 2 μg/mL, Biolegend, Cat #409304) was added. The plate was incubated at 4° C. for half an hour away from the light. A pre-cooled PBS buffer was added, and the supernatant was discarded after centrifugation at 4° C., which were repeated three times. The cells were resuspended in an FACS buffer at 200 μL/well and detected using a flow cytometer (BD FACS Calibur).
# [2] = tested on: DoHH2; type: cell-based, human; conditions: DoHH2 (CD79B high-expression), 72 h, MTT
# [3] = tested on: WSU-DLCL2; type: cell-based, human; conditions: WSU-DLCL2 (CD79B low-expression), 72 h, MTT
# [4] = tested on: Raji; type: cell-based; conditions: Raji (CD79B negative-expression), 72 h, MTT
# [5] = tested on: human diffuse large B-cell lymphoma WSU-DLCL2-induced nude mouse subcutaneous xenograft tumor; type: in vivo, nude mice (BALB/c-nu); conditions: IV; for Mean tumor volume (mm^3) D0: baseline at grouping; for % T/C D21 / % Tumor growth inhibition D21 / Mean tumor volume (mm^3) D21 / Partial regression: single dose D0; for Partial regression: tumors of 6
# [6] = tested on: human follicular lymphoma DOHH-2-induced nude mouse subcutaneous xenograft tumor; type: in vivo, nude mice (BALB/c-nu); conditions: 1 mg/kg
# Experimental: This example was performed to further evaluate and compare the efficacy of ADC drugs on DoHH2-induced nude mouse subcutaneous xenograft tumor.
# 2. Cells and mice: DOHH-2 cells were purchased from DSMZ, Germany. DOHH-2 cells were cultured in a 10 cm petri dish with an RPMI 1640 culture medium (Gibco) containing 10% fetal bovine serum, penicillin and streptomycin and incubated in an incubator at 37° C. with 5% CO2. Subculturing was performed 2-3 times a week, and cells were collected, counted and seeded when they were in exponential growth phase.
# Nude mice, BALB/c-nu, 4-5 weeks of age, female, were purchased from Shanghai Lingchang Biotechnology Co., Ltd, with production license number of SCXK (Shanghai) 2018-0003, and animal certification number of 20180003010222. Housing environment: SPF grade.
# 3. Experimental steps: each nude mouse was subcutaneously inoculated with 3×10^7 DOHH-2 cells, and after the tumor volume reached 100-150 mm^3, the animals were grouped according to tumor volume (D0). The mice were administrated by intravenous injection (IV) at an administration volume of 10 mL/kg. The tumor volumes and body weights were measured twice a week and the results were recorded.
# The experimental index is to study the effect of the drug on the tumor growth, and the specific index is T/C % or tumor growth inhibition TGI (%).
# Tumor diameters were measured twice a week with a vernier caliper and tumor volume (V) was calculated according to the following formula: V=½×a×b^2 where a and b represent length and width, respectively.
# T/C (%)=(T−T0)/(C−C0)×100 where T and C represent the tumor volume of animals at the end of the experiment in the treatment group and control group, respectively; T0 and C0 represent the tumor volume of animals at the beginning of the experiment in the treatment group and control group, respectively; where T is the tumor volume of the ADC administered and C is the tumor volume of IgG1 administered as a control group.
# At the end of the experiment, at the experiment endpoint, or when the mean tumor volume in the solvent group reached 1500 mm^3, the animals were sacrificed by CO2 anesthesia and dissected to give the tumors. The tumors were photographed.
# Unless otherwise indicated, comparison between tumor volumes of the two groups was made by two-way ANOVA test, with P<0.05 defined as statistically significant difference.
molecule,measurement,setting,value
B1,Endocytosis rate (4 h),[1],75%
same,IC50,[2],0.0033 µg/mL
same,IC50,[3],0.0542 µg/mL
same,IC50,[4],>10 µg/mL
same,Mean tumor volume (mm^3) D0,[5]; 1.5 mg/kg,109.7 mm^3
same,% T/C D21,[5]; 1.5 mg/kg,34%
same,% Tumor growth inhibition D21,[5]; 1.5 mg/kg,66%
same,Mean tumor volume (mm^3) D21,[5]; 1.5 mg/kg,366.3 mm^3
same,Partial regression,[5]; 1.5 mg/kg,0
same,Mean tumor volume (mm^3) D0,[5]; 3 mg/kg,108.6 mm^3
same,% T/C D21,[5]; 3 mg/kg,−8%
same,% Tumor growth inhibition D21,[5]; 3 mg/kg,108%
same,Mean tumor volume (mm^3) D21,[5]; 3 mg/kg,99.4 mm^3
same,Partial regression,[5]; 3 mg/kg,5/6 and 5
same,Mean tumor volume (mm^3) D0,[5]; 6 mg/kg,108.7 mm^3
same,% T/C D21,[5]; 6 mg/kg,−25%
same,% Tumor growth inhibition D21,[5]; 6 mg/kg,125%
same,Mean tumor volume (mm^3) D21,[5]; 6 mg/kg,81.2 mm^3
same,Partial regression,[5]; 6 mg/kg,6/6 and 6
same,Mean tumor volume (mm^3) D0,"[6]; IV, D0, baseline at grouping",112.9 mm^3
same,Mean tumor volume (mm^3) D20,"[6]; IV, single dose D0, D20",82.4 mm^3
same,Tumor growth inhibition (%) D20,"[6]; IV, single dose D0, D20",127%
same,T/C (%) D20,"[6]; IV, single dose D0, D20, control IgG1",−27%
same,Partial regression,"[6]; IV, single dose D0, tumors of 6",5/6 and 5
same,efficacy on DoHH2-induced nude mouse subcutaneous xenograft tumor (conclusion),[6]; single intravenous injection,significant efficacy

# — patent US12642862B2, “Anti-CD79B antibody-drug conjugate, and preparation method therefor and pharmaceutical use thereof” (TUOJIE BIOTECH (SHANGHAI) CO., LTD., priority 2020, dated 2026)
